We go through two molecules from ChEMBL document CHEMBL5523704, “Exploration of isoxazole analogs: Synthesis, COX inhibition, anticancer screening, 3D multicellular tumor spheroids, and molecular modeling” (Eur J Med Chem, 2024).

Amino acid sequences for entries named in this document (tags omitted).
UniProt P35354, whole entry: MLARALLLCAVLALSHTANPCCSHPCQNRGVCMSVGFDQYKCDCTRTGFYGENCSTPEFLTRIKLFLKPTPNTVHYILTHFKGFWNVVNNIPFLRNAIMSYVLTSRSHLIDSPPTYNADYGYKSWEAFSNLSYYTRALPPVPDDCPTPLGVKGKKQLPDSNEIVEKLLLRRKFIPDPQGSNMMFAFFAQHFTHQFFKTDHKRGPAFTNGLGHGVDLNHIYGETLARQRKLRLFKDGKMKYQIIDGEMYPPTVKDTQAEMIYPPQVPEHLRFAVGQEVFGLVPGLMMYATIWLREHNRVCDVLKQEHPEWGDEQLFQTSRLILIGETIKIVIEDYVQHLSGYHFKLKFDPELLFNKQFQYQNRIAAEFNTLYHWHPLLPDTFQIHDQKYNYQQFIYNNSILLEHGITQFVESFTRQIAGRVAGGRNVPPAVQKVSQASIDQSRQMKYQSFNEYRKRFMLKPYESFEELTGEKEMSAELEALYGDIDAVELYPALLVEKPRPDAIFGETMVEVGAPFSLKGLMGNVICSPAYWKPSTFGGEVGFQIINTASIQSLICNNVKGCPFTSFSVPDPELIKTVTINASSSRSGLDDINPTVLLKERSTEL

The inhibition is the share of the control response that was lost under treatment. High values mean strong suppression, low ones little suppression.

A short description of test [1]: Selectivity ratio of inhibition of COX2 (unknown origin) to inhibition of COX1 (unknown origin).
Test [2] deals with Prostaglandin G/H synthase 2 (Homo sapiens) (UniProt P35354). Kind of test: Inhibition of COX-2 (unknown origin) at 25 uM by fluorescence based analysis.

As to `COc1ccc(-c2nc(C(=O)Nc3cc(OC)c(OC)c(OC)c3)cs2)cc1`, in test [1], the Selectivity ratio is 3.67.
In turn, `OC[C@H]1O[C@@H](Cc2cc(-c3c[nH]c4ccccc34)on2)[C@H](O)[C@@H](O)[C@H]1O` registered an inhibition in test [2] of 61%.
